{"source": "patent US20180271857A1", "about": "“TREATMENT OF CANCER BY INHIBITING EZH2 ACTIVITY” (University of Copenhagen, priority 2014, published 2018)", "system": "H3K27me3 at Ink4a locus and EZH2 target genes in PDGFB NSCs", "test": "ChIP-qPCR analysis of H3K27me3 enrichment (FIG. 2E, 2F)", "conditions": "FIG. 2F"}
{"smiles": "CCN(c1cc(-c2ccc(CN3CCOCC3)cc2)cc(C(=O)NCc2c(C)cc(C)[nH]c2=O)c1C)C1CCOCC1", "note": "[EPZ6438]", "values": [{"measurement": "H3K27me3 on several EZH2 target genes by ChIP-qPCR", "value": "strongly reduced"}]}
